# Measured values taken from ChEMBL document CHEMBL3745652, “Synthesis and evaluation of pretomanid (PA-824) oxazolidinone hybrids” (Bioorg Med Chem Lett, 2016).
# Assay: in vitro
# Settings: monkey, Vero cells
smiles,measurement,value
O=[N+]([O-])c1cn2c(n1)OC[C@@H](OCc1ccc(N3CCCCC3)c(F)c1)C2,selectivity ratio,> 1000
